From PMC6097915 (ACS chemical biology, 2018)
Converted amounts (≈) assume the structure as drawn.

Tested on: WT MG1655 E. coli
Format: cell-based
Settings: 6-hr period, aerated EZRDM medium, 30°C, by OD, successive two-fold dilutions in 96 well plates

With `CC[C@H](C)[C@H](NC(=O)CN)C(=O)NCC(=O)N[C@@H](C)C(=O)N[C@H](C(=O)N[C@@H](CC(C)C)C(=O)N[C@@H](CCCCN)C(=O)N[C@H](C(=O)N[C@@H](CC(C)C)C(=O)N[C@H](C(=O)N[C@H](C(=O)NCC(=O)N[C@@H](CC(C)C)C(=O)N1CCC[C@H]1C(=O)N[C@@H](C)C(=O)N[C@@H](CC(C)C)C(=O)N[C@H](C(=O)N[C@@H](CO)C(=O)N[C@@H](Cc1c[nH]c2ccccc12)C(=O)N[C@H](C(=O)N[C@@H](CCCCN)C(=O)N[C@@H](CCCNC(=N)N)C(=O)N[C@@H](CCCCN)C(=O)N[C@@H](CCCNC(=N)N)C(=O)N[C@@H](CCC(N)=O)C(=O)N[C@@H](CCC(N)=O)C(N)=O)[C@@H](C)CC)[C@@H](C)CC)[C@@H](C)O)[C@@H](C)O)C(C)C)C(C)C` [Melittin] the “MIC (minimum inhibitory concentration)” value was 5 µM (≈ 14.2 µg/mL).
